From ChEMBL document CHEMBL5518221, “Discovery and Optimization of Selective Brain-Penetrant EBP Inhibitors that Enhance Oligodendrocyte Formation” (J Med Chem, 2024)
Active and inactive are the calls of the source. No cut-off for these calls is given here.

Chains of the proteins cited; added tags and fusions are not shown. Lines headed by an entry give the natural chain unless they say otherwise; changes in a name come on top.
UniProt Q15125: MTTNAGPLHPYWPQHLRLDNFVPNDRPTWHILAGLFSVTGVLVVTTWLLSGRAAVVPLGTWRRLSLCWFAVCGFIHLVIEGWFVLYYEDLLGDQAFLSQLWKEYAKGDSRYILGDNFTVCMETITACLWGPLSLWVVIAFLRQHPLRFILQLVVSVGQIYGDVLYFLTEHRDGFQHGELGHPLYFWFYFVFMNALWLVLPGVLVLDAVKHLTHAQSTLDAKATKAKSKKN

Assays:
[1] = molecular target: 3-beta-hydroxysteroid-Delta(8),Delta(7)-isomerase (Homo sapiens, UniProt Q15125); conditions: Oligocortical organoid, dose lower […], dose upper 1750.0 nM, time 30.0 day
[2] = Dissociation constant, pKa of compound
BCRP = assay: in vitro; conditions: dog
MDR1 = assay: in vitro; conditions: dog, MDCK-MDR1
[3] = Lipophilicity, logD of the compound at pH 7.4; conditions: buffer
in vitro = conditions: CD-1, mouse, pooled liver microsomes
[4] = molecular target: T1, 3-beta-hydroxysteroid-Delta(8),Delta(7)-isomerase (Mus musculus, UniProt P70245); assay: Inhibition of EBP in mouse Oligodendrocyte precursor cell assessed as zymostenol accumulation by GCMS analysis
T1 sequence (P70245 whole entry): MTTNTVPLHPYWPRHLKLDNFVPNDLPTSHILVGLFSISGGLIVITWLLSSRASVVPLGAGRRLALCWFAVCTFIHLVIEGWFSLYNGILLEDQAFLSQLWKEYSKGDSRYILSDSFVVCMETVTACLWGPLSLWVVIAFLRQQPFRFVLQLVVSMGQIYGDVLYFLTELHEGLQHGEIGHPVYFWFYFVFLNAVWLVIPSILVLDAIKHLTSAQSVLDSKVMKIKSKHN

Question: For CCN1C(=O)N(c2ccc(C3CC3)cc2)C(=O)C12CCN(CC1CCOCC1)CC2, which inhibition [1] is on record?
Answer: The inhibition was “Active”.

Question: With CN1c2ccc(C(F)(F)F)cc2C(=O)C12CCN(CC1CCOCC1)CC2 as the compound, how does the pKa [2] read?
Answer: The pKa was 8.3.

Question: And the Papp A→B (BCRP)?
Answer: Its Papp A→B is 16.2 ×10⁻⁶ cm/s.

Question: What about the Papp A→B (MDR1) of the same compound?
Answer: The Papp A→B was 18.3 ×10⁻⁶ cm/s.

Question: And the logD [3]?
Answer: Its logD is 3.3.

Question: And the CLhep predicted at 1 h, 1 µM (in vitro)?
Answer: Its CLhep predicted at 1 h, 1 µM is 47 mL/min/kg.

Question: And the EC50 [4]?
Answer: Its EC50 is 5 nM.
